Calls of active or inactive are those of the source. The calls are words filed in the database; no cut-off is given here.
The compounds below were run against T1, Histone deacetylase 8 (Homo sapiens) (UniProt Q9BY41) (assay: Inhibition of HDAC8 (unknown origin) up to 1 uM incubated at 37 degC for 30 mins).
T1 sequence (whole entry): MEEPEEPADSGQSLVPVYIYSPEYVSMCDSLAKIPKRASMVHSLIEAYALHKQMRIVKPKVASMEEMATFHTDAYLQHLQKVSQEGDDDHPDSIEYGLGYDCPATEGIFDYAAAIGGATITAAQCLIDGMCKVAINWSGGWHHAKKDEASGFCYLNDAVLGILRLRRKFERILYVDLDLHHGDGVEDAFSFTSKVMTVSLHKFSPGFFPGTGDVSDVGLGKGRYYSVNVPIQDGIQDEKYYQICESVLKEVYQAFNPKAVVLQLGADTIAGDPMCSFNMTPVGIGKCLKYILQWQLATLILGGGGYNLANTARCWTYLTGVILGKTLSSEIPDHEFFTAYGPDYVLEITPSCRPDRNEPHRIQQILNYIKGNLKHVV

inhibition, inactive:
C[C@@]12CSC(=N1)c1csc(n1)CNC(=O)C[C@@H](/C=C/CCS)OC(=O)[C@H](CC(=O)O)NC2=O
C[C@@]12CSC(=N1)c1csc(n1)CNC(=O)C[C@@H](/C=C/CCS)OC(=O)[C@H](Cc1ccccc1)NC2=O
C[C@@]12CSC(=N1)c1csc(n1)CNC(=O)C[C@@H](/C=C/CCS)OC(=O)[C@H](CCN)NC2=O

— ChEMBL document CHEMBL3352389, “Evaluation of class I HDAC isoform selectivity of largazole analogues” (Bioorg Med Chem Lett, 2014)
